Measurements as given in publication PMC6631257, “A Single Site Population Study to Investigate CYP2D6 Phenotype of Patients with Persistent Non-Malignant Pain” (Medicina, 2019).

System: patients with persistent non-malignant pain

In the case of COc1ccc2c3c1O[C@H]1[C@@H](O)C=C[C@H]4[C@@H](C2)N(C)CC[C@@]341 [codeine], the “'unexpected' adverse event: flu-like symptoms, participants” value (11/125) is reported as 8%, the “'unexpected' adverse event: stomach cramps, participants” value (11/125) is reported as 9% and the “'unexpected' adverse event: diarrhoea, participants” value (13/125) is reported as 10%. For the same compound, the “'expected' adverse event: constipation, participants” value (37/125) was 30%, the “'expected' adverse event: nausea, participants” value (41/125) was 33% and the “'expected' adverse event: headache, participants” value (46/125) was 37%. For the same compound, the serious adverse events (during the course of the study) was “no reported serious adverse events” and the “participants who withdrew from the study due to adverse events” value (females, of 131 enrolled) was “Three”.
